Each structure is given as a SMILES string.

Chains of the proteins cited; added tags and fusions are not shown.
UniProt Q15858, whole entry: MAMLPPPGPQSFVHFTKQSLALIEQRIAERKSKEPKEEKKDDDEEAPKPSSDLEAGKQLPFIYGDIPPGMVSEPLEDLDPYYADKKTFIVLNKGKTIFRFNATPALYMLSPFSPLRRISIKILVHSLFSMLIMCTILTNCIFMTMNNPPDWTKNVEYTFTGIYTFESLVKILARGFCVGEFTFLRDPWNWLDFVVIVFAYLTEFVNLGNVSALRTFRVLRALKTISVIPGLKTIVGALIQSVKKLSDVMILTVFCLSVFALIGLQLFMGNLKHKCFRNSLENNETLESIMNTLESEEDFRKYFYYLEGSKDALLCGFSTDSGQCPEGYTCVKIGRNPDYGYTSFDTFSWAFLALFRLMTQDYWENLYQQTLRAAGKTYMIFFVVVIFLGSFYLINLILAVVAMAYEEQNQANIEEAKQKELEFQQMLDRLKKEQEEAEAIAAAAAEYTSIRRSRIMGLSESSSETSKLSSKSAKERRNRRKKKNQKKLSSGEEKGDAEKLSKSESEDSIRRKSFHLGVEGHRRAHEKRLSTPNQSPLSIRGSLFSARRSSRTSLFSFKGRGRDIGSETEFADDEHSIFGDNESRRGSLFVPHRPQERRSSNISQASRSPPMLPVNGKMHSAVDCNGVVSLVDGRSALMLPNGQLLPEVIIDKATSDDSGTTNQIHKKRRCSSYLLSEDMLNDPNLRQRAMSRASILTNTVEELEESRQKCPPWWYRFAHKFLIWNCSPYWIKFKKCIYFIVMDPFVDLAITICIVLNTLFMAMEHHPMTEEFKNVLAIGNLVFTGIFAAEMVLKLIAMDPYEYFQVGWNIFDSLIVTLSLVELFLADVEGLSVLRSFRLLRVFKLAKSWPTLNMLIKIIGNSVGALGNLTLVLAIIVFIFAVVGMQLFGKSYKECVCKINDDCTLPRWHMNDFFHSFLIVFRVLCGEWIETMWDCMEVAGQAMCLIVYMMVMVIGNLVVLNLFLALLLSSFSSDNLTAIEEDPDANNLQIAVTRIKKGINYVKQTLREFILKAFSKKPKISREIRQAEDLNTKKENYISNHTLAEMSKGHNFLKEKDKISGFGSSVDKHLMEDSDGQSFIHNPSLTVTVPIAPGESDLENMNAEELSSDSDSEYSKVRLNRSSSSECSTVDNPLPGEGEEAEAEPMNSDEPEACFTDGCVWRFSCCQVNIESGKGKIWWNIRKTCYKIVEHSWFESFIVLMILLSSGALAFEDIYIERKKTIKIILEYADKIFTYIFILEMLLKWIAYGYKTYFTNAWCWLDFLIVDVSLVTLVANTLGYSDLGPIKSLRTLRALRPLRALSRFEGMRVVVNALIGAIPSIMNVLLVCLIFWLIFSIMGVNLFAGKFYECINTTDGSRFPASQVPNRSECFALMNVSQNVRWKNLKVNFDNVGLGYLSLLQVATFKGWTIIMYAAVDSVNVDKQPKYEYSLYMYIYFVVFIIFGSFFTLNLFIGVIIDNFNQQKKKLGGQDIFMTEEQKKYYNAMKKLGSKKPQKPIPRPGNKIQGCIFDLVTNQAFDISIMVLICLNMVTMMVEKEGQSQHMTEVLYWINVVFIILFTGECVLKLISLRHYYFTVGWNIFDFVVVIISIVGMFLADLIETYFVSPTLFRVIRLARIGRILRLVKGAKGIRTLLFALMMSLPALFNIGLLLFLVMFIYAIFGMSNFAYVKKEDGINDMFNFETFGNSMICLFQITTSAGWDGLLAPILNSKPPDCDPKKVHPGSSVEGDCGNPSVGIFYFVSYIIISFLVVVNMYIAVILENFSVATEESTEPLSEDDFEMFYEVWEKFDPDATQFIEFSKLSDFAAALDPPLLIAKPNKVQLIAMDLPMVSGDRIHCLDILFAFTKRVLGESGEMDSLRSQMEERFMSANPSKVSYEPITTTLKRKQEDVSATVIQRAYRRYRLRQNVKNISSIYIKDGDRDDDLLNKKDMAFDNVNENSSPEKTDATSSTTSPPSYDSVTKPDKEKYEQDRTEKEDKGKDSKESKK

The experiment concerns the target recombinant human Nav1.7 (Homo sapiens (Human), UniProt Q15858). In words: FRET-based membrane potential assay, recombinant human sodium channel Nav1.7. The conditions noted are these: read-out: FRET-Membrane Potential Nav1.7 IC50.

For the molecule `O=C(NCC(=O)N1CCCC1)c1ccc2cc(Oc3ccc(C(F)(F)F)cn3)ccc2n1` [Example 44, N-[2-oxo-2-(pyrrolidin-1-yl)ethyl]-6-{[5-(trifluoromethyl)pyridin-2-yl]oxy}quinoline-2-carboxamide], the IC50 worked out at 1670 nM.
